Biological target: human autotaxin (ATX) (Homo sapiens (Human), UniProt Q13822)
Test: Human Autotaxin Assay
Format: biochemical
Conditions: concentrated conditioned media from Hep3B cells; LPC substrate, choline release
Experimental: ATX activity is assayed in concentrated conditioned media from Hep3B human hepatocellular carcinoma cells by measuring the amount of choline released from the substrate, lysophosphatidylcholine (LPC) as it is cleaved to LPA. Conditioned media is collected from confluent Hep3B cells and concentrated 20-fold using Centriprep-30 filter devices (Millipore). To assay for autotaxin inhibition, 10-20 μL of the concentrated conditioned media is incubated with 2.5 μL of a test compound in DMSO and 72.5-82.5 μL lyso-PLD buffer (100 mM Tris pH 9, 500 mM NaCl, 5 mM MgCl2, 5 mM CaCl2, 0.05% Triton X-100 in the presence or absence of 0.2% fatty-acid-free human serum albumin) for 15 min at 37° C. After the 15 min incubation, 5 uL of 2 mM LPC (14:0; Avanti Polar Lipids Cat#855575C) diluted in lyso-PLD buffer is added for a final concentration of 100 uM and the incubation continues for 1.5-3 hours at 37° C. 100 μL of a color mix containing 4.5 mM 4-aminoantipyrine, 2.7 mM N-ethyl-N-(2-hydroxy-3-sulfopropyl)-m-toluidine, 21 units/ml horseradish peroxidase and 3 units/mL choline oxidase in 50 mM Tris, pH 8, 4.5 mM MgCl2 is added and the incubation continued for 15 minutes at room temperature before reading the absorbance at 555 nm.

How did the IC50 turn out when `Cc1c(Sc2cccc(C(=O)O)c2F)c2ccc(Cl)c(F)c2n1CC(=O)N1CC[C@@](O)(C(F)(F)F)C1` (single isomer, unassigned; enantiomer a) [Compound 2-58] was run?
The IC50 was ≤ 500 nM.
